Experimental data published in patent publication US20230241178A1, “LONG ACTING GLP-1/GIP DUAL AGONISTS” (SUN PHARMACEUTICAL INDUSTRIES LIMITED, priority 2020, published 2023).

Columns and labels:
[1] = test system: type 2 diabetic mouse (db/db) model; assay: Effect of Compound 2 and 7 on blood glucose, body weight and food consumption in mice, up to 72 hr (Tables 6, 7); assay type: in vivo; conditions: n = 8
Protocol: Similarly body weight changes and cumulative food consumption was measured at 72 hr post treatment.

[2] = target: T1, GIPR (Homo sapiens, UniProt P48546); assay: cAMP assay (cAMP Hunter eXpress GPCR Assay) on GIPR-expressing cells; assay type: cell-based; conditions: read-out: half-maximal effective concentration, cellular cAMP
T1 construct: host or cells: GIPR-expressing cells of the cAMP Hunter eXpress GPCR Assay kit
T1 sequence (P48546 22-466): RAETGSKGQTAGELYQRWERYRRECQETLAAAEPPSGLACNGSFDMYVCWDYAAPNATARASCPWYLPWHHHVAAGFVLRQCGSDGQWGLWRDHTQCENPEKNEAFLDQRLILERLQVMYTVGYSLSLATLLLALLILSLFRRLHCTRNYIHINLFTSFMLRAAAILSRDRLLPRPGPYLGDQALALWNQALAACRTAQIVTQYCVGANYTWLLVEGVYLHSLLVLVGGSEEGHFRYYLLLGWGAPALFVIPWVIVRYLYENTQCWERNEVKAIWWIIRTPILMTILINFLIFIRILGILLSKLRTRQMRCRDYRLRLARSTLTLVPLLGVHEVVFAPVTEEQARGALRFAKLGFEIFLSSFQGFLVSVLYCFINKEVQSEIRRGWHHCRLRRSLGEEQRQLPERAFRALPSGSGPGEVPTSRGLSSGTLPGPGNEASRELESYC
Protocol: In-vitro potency determination was performed using cAMP assay. G protein coupled receptor (GPCR) activation following ligand binding initiates a series of second messenger cascades that results in a cellular response. Signaling by the GLP-1R and GIP-R involves activation of adenylate cyclase and cAMP production. Cellular cAMP production was determined using the cAMP Hunter™ eXpress GPCR Assay (Eurofins DiscoveRx).

[3] = test system: type 2 diabetic mouse (db/db) model; assay: Reduction in blood glucose and effect on body weight and food intake, single dose, db/db mice (Tables 4, 5); assay type: in vivo
Protocol: The effect of Compounds of present invention on blood glucose was studied on mice. This study was performed in a type 2 diabetic mouse (db/db) model. […] Baseline blood glucose was measured from all the animals. All animals were administered with its respective test item subcutaneously. […] Delta blood glucose (mM) was calculated. Similarly body weight changes and cumulative food consumption was measured at 96 hr post treatment.

Row | Molecule | Delta Blood Glucose (mM), Mean ([1]; 48 hr post treatment, 10 nM/kg) | EC50 [2] | Delta Blood Glucose (mM), Mean ([1]; 4 hr post treatment, 90 nM/kg) | Delta Blood Glucose (mM), Mean ([1]; 8 hr post treatment, 90 nM/kg) | Delta Blood Glucose (mM), Mean ([1]; 12 hr post treatment, 90 nM/kg) | Delta Blood Glucose (mM), Mean ([1]; 24 hr post treatment, 90 nM/kg) | Delta Blood Glucose (mM), Mean ([1]; 48 hr post treatment, 90 nM/kg) | Delta Blood Glucose (mM), Mean ([1]; 72 hr post treatment, 90 nM/kg) | Delta Blood Glucose (mM), Mean ([3]; 4 hr post treatment, @ 10 nM s.c., n = 6 study) | Delta Blood Glucose (mM), Mean ([3]; 4 hr post treatment, @ 59 nM s.c., separate study n = 5) | Delta Blood Glucose (mM), Mean ([3]; 12 hr post treatment, @ 10 nM s.c., n = 6 study) | Delta Blood Glucose (mM), Mean ([3]; 12 hr post treatment, @ 59 nM s.c., separate study n = 5) | Delta Blood Glucose (mM), Mean ([3]; 24 hr post treatment, @ 10 nM s.c., n = 6 study) | Delta Blood Glucose (mM), Mean ([3]; 24 hr post treatment, @ 59 nM s.c., separate study n = 5) | Delta Blood Glucose (mM), Mean ([3]; 48 hr post treatment, @ 10 nM s.c., n = 6 study) | Delta Blood Glucose (mM), Mean ([3]; 48 hr post treatment, @ 59 nM s.c., separate study n = 5) | Delta Blood Glucose (mM), Mean ([3]; 72 hr post treatment, @ 10 nM s.c., n = 6 study) | Delta Blood Glucose (mM), Mean ([3]; 72 hr post treatment, @ 59 nM s.c., separate study n = 5) | Delta Blood Glucose (mM), Mean ([3]; 96 hr post treatment, @ 10 nM s.c., n = 6 study) | Delta Blood Glucose (mM), Mean ([3]; 96 hr post treatment, @ 59 nM s.c., separate study n = 5)
1 | CC[C@H](C)[C@H](NC(=O)[C@H](CC(C)C)NC(=O)[C@H](Cc1c[nH]c2ccccc12)NC(=O)[C@H](CCC(N)=O)NC(=O)[C@@H](NC(=O)[C@H](Cc1ccccc1)NC(=O)[C@H](C)NC(=O)[C@H](CCCCNC(=O)COCCOCCNC(=O)C(C)(C)NC(=O)CC[C@H](NC(=O)CCCCCCCCCCCCCCCCCCC(=O)O)C(=O)O)NC(=O)[C@H](CCC(N)=O)NC(=O)[C@H](C)NC(=O)[C@@H](NC(=O)[C@H](CCCCN)NC(=O)[C@H](CC(=O)O)NC(=O)[C@H](CC(C)C)NC(=O)C(C)(C)NC(=O)[C@@H](NC(=O)[C@H](CO)NC(=O)[C@H](Cc1ccc(O)cc1)NC(=O)[C@H](CC(=O)O)NC(=O)[C@H](CO)NC(=O)[C@@H](NC(=O)[C@H](Cc1ccccc1)NC(=O)[C@@H](NC(=O)CNC(=O)[C@H](CCC(=O)O)NC(=O)C(C)(C)NC(=O)[C@@H](N)Cc1ccc(O)cc1)[C@@H](C)O)[C@@H](C)O)[C@@H](C)CC)[C@@H](C)CC)C(C)C)C(=O)N[C@@H](C)C(=O)NCC(=O)NCC(=O)N1CCC[C@H]1C(=O)N[C@@H](CO)C(=O)N[C@@H](CO)C(=O)NCC(=O)N[C@@H](C)C(=O)N1CCC[C@H]1C(=O)N1CCC[C@H]1C(=O)N1CCC[C@H]1C(=O)N[C@@H](CO)C(N)=O [Compound 2] | -10.1 mM | – | – | – | – | – | – | – | – | – | – | – | – | – | – | – | – | – | – | –
2 | Tirzepatide [reference compound] | – | 1.89 nM | -10.3 mM | -9.4 mM | -13.6 mM | -14.9 mM | -10.1 mM | -4.0 mM | -8.0 mM | -11.8 mM | -5.4 mM | -17.7 mM | -10.0 mM | -14.9 mM | -2.5 mM | -8.1 mM | -1.9 mM | -3.2 mM | 1.5 mM | 0.2 mM
